Km data for one molecule are collected here from ChEMBL document CHEMBL5346864, “Identification of L. infantum trypanothione synthetase inhibitors with leishmanicidal activity from a (non-biased) in-house chemical library” (Eur J Med Chem, 2022).

Assay [1] concerns Leishmania infantum. To be noted: MCAN/ES/89/IPZ229/1/89, dose 8.3 µM, time 30.0 min.
In assay [2] the test system is Leishmania infantum. To be noted: MCAN/ES/89/IPZ229/1/89, dose 4.8 µM, time 30.0 min.
The test system of assay [3] is Leishmania infantum. The following applies: MCAN/ES/89/IPZ229/1/89, dose 6.9 µM, time 30.0 min.
Assay [4] has as its system Leishmania infantum. To be noted: MCAN/ES/89/IPZ229/1/89, dose 4.0 µM, time 30.0 min.
The test system of assay [5] is Leishmania infantum. To be noted: MCAN/ES/89/IPZ229/1/89, dose 5.8 µM, time 30.0 min.

By Km is commonly meant the concentration of substrate that gives half-maximal velocity.

For `CCCCCCCCCCCCCCOc1ccc(C[N+](C)(C)C2CCCC2)cc1OC`, the Km in the assay on Leishmania infantum [1] was 312 µM; in the assay on Leishmania infantum [2], 68.9 µM; with Leishmania infantum [3], 66.1 µM; with Leishmania infantum [4], 49.8 µM; with Leishmania infantum [5] it was 76.1 µM.
